# Only a part is listed here, and it is no random draw. Some salts or complexes appear as unconnected parts, following the source record. Active and inactive are the calls of the source.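 Rule for the calls: active = inhibition above the mean inhibition of all tested compounds plus 3 SD, computed separately for each screening campaign (cut at about 15% in these data); inactive = the rest.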
# The chains behind the UniProt entries cited, without tags or fusion partners.
# UniProt P62136, whole entry: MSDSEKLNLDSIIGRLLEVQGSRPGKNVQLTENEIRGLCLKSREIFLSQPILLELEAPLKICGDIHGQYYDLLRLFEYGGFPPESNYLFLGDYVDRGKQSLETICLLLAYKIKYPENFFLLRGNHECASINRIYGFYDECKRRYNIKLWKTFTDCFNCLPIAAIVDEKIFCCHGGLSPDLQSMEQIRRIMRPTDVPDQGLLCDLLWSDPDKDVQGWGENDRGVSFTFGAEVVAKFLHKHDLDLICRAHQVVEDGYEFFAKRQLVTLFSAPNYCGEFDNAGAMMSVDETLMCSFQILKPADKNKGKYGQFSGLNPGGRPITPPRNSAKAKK
# Target: Serine/threonine-protein phosphatase PP1-alpha catalytic subunit (Homo sapiens) (UniProt P62136)
# Assay: PP1-alpha phosphatase inhibitors, primary screen, counter-screen for PP5 inhibitor project, biochemical, fluorescence, OMFP substrate, single point (AID 2235)
# Conditions: purified PP1alpha, at 6.7 µM, stronger effect = higher value
row,SMILES,inhibition
1,CP(=O)(Nc1ccccc1)Oc1ccc(F)cc1 (stereo unspecified),inactive: -0.11%
2,O=[N+]([O-])c1cc([N+](=O)[O-])c(OC2CCCCC2O)c([N+](=O)[O-])c1 (stereo unspecified),inactive: 0.97%
3,CCCCCOc1ccc(NP(C)(=O)Oc2ccc(Cl)cc2Cl)cc1 (stereo unspecified),inactive: 4.47%
4,CCN(CC)CCCOC(=O)C(O)(c1ccccc1)C1CCCCC1 (stereo unspecified),inactive: -3.93%
5,CCOC(=O)c1ccc(NP(C)(=O)Oc2ccc(F)cc2)cc1 (stereo unspecified),inactive: -2.83%
6,COc1ccc(OP(C)(=O)Nc2ccc(SC(F)(F)F)cc2)cc1 (stereo unspecified),inactive: -4.43%
7,COc1ccc2c(c1O)-c1c(O)c(OC)cc3c1[C@H](C2)[N+](C)(C)CC3.O=[N+]([O-])c1cc([N+](=O)[O-])c([O-])c([N+](=O)[O-])c1[O-],inactive: 0.11%
8,O=C(OC1CN2CCC1CC2)c1ccc([N+](=O)[O-])cc1 (stereo unspecified),inactive: -2.24%
9,O=C(OCCN1CCN(CCOCc2ccccc2)CC1)C(O)(c1ccccc1)c1ccccc1,inactive: 5.29%
10,CP(=O)(Nc1ccccc1F)Oc1ccccc1 (stereo unspecified),inactive: -7.14%
11,CC(C)c1ccc(OP(C)(=O)Nc2ccc(SC(F)(F)F)cc2)cc1 (stereo unspecified),inactive: 3.54%
12,Cc1ccccc1NP(C)(=O)Nc1ccccc1C,inactive: -1.97%
13,CP(=O)(Nc1ccc2c(c1)OCCO2)Oc1ccccc1 (stereo unspecified),inactive: 3.23%
14,CCOP(C)(=S)SCC(=O)NC(C)(CC)C(=O)O (stereo unspecified),inactive: 0.71%
15,CP(=O)(Nc1ccc(SC(F)(F)F)cc1)Oc1ccc(F)cc1 (stereo unspecified),inactive: 0.9%
16,O=[N+]([O-])c1cc([N+](=O)[O-])c(NCC2CCS(=O)(=O)C2)c([N+](=O)[O-])c1 (stereo unspecified),inactive: -4.43%
17,CN(C)CCOC(=O)C(O)(c1ccccc1)C1CCCCC1 (stereo unspecified),inactive: -0.22%
18,COc1ccc(NP(C)(=O)Oc2ccccc2OC)cc1 (stereo unspecified),inactive: -2.65%
19,COc1ccc(OP(C)(=O)Nc2cccc(Br)c2)cc1 (stereo unspecified),inactive: 0.86%
20,CP(=O)(Nc1ccc(SC(F)(F)F)cc1)Oc1ccccc1 (stereo unspecified),inactive: 0.96%
21,CCCOc1ccc(NP(C)(=O)Oc2ccc(Cl)cc2)cc1 (stereo unspecified),inactive: -1.61%

row,SMILES,inhibition
1,COc1ccccc1OP(C)(=O)Nc1c(C)cccc1C (stereo unspecified),inactive: -1.54%
2,CN1CCCCC1COC(=O)C1(O)c2ccccc2CCc2ccccc21 (stereo unspecified),inactive: 2.24%
3,CCOC(=O)C(CC)C1=NC(C)(C)Cc2ccccc21.O=[N+]([O-])c1cc([N+](=O)[O-])c(O)c([N+](=O)[O-])c1 (stereo unspecified),inactive: -4.13%
4,O=[N+]([O-])c1cc([N+](=O)[O-])c(Nc2nnnn2CCO)c([N+](=O)[O-])c1,inactive: -0.6%
5,CC1=C2N=C(C=C3N=C(C(C)=C4[N-][C@@](C)([C@@H]5N=C1[C@](C)(CCC(=O)NC[C@@H](C)OP(=O)([O-])O[C@H]1[C@@H](O)[C@@H](n6cnc7cc(C)c(C)cc76)O[C@@H]1CO)[C@H]5CC(N)=O)[C@@](C)(CC(N)=O)[C@@H]4CCC(N)=O)[C@@](C)(CC(N)=O)[C@@H]3CCC(N)=O)C(C)(C)[C@@H]2CCC(N)=O.[C-]#N.[Co+3],inactive: 4.68%
6,Cc1nc2ccc3ccccc3c2s1.O=[N+]([O-])c1cc([N+](=O)[O-])c(O)c([N+](=O)[O-])c1,inactive: -6.84%
7,O=[N+]([O-])c1cc([N+](=O)[O-])c(-c2cnn(-c3ccccc3)c2)c([N+](=O)[O-])c1,inactive: -2.21%
8,O=[N+]([O-])c1cc([N+](=O)[O-])c(-n2nnc3ccccc32)c([N+](=O)[O-])c1,inactive: -1.07%
9,Cc1ccc(C)c(NP(C)(=O)Oc2ccccc2)c1 (stereo unspecified),inactive: -0.2%
10,CP(=O)(Nc1cccc(Br)c1)Oc1ccccc1 (stereo unspecified),inactive: -2.84%
11,Cc1cc(C)cc(OP(C)(=O)Nc2ccccn2)c1 (stereo unspecified),inactive: -5.11%
12,CCOC(=O)c1ccc(NP(C)(=O)Oc2cc(C)cc(C)c2)cc1 (stereo unspecified),inactive: 1.72%
13,Cc1cc(C)cc(OP(C)(=O)Nc2ccc(C)cc2C)c1 (stereo unspecified),inactive: 0.03%
14,COc1ccccc1OP(C)(=O)Nc1cccc(Br)c1 (stereo unspecified),inactive: -1.13%
15,CC1=NCCc2c1[nH]c1ccccc21.O=[N+]([O-])c1cc([N+](=O)[O-])c(O)c([N+](=O)[O-])c1,inactive: -0.15%
16,O=C(O)c1cccc(Nc2c([N+](=O)[O-])cc([N+](=O)[O-])cc2[N+](=O)[O-])c1,inactive: -3.75%
17,Cc1cc(C)cc(OP(C)(N)=O)c1 (stereo unspecified),inactive: -4.21%
18,COc1ccc(OP(C)(=O)Nc2cccc(F)c2)cc1 (stereo unspecified),inactive: -7.32%
19,COc1ccccc1OP(C)(=O)Nc1cc(Cl)ccc1C (stereo unspecified),inactive: -1.19%
20,Cc1ccc(NP(C)(=O)Oc2ccccc2)c(C)c1 (stereo unspecified),inactive: 3.1%
21,COc1ccccc1OP(C)(=O)Nc1ccc(C)cc1 (stereo unspecified),inactive: 0.58%

row,SMILES,inhibition
1,CCOC(=O)c1ccc(NP(C)(=O)Oc2ccccc2)cc1 (stereo unspecified),inactive: -3.1%
2,O=[N+]([O-])c1ccc2c(c1)C=Nc1ccccc1O2,inactive: -2.14%
3,Cc1cccc(C)c1OP(C)(N)=O (stereo unspecified),inactive: 1.49%
4,CC(C)(C)c1ccc(OP(C)(=O)Nc2ccc(SC(F)(F)F)cc2)cc1 (stereo unspecified),inactive: 7.57%
5,O=[N+]([O-])c1cc([N+](=O)[O-])c(Nc2cccnc2)c([N+](=O)[O-])c1,inactive: -1.74%
6,CCN(CC)CCCOC(=O)C(O)(c1ccccc1)c1ccccc1,inactive: 1.61%
7,CP(=O)(Nc1ccccn1)Oc1ccc(Cl)cc1 (stereo unspecified),inactive: -1.54%
8,CCOC(=O)c1ccc(NP(C)(=O)Oc2ccc(OC)cc2)cc1 (stereo unspecified),inactive: 0.91%
9,O=[N+]([O-])c1cc([N+](=O)[O-])c(O)c([N+](=O)[O-])c1.c1ccc(Oc2ccncc2)cc1,inactive: -4.36%
10,CCOP(C)(=S)SCC(=O)NC(C)C(=O)O (stereo unspecified),inactive: 3.61%
11,Cc1cc(C)cc(OP(C)(=O)Nc2ccc(SC(F)(F)F)cc2)c1 (stereo unspecified),inactive: 7.33%
12,CCc1ccc(OP(C)(=O)N2CCN(c3ccc([N+](=O)[O-])cc3)CC2)cc1 (stereo unspecified),inactive: 1.73%
13,CP(=O)(NC(=O)Nc1ccccc1)Oc1ccccc1 (stereo unspecified),inactive: -1.8%
14,CP(=O)(Oc1ccccc1)OC(c1ccccc1)C(F)(F)F (stereo unspecified),inactive: 0.37%
15,Cc1cccc(C)c1OP(C)(=O)Nc1ccc(SC(F)(F)F)cc1 (stereo unspecified),inactive: -8.82%
16,CP(=O)(Nc1ccc(SC(F)(F)F)cc1)Oc1ccc(Cl)cc1 (stereo unspecified),inactive: 3.17%
17,CP(=O)(Nc1ccccc1Br)Oc1ccccc1 (stereo unspecified),inactive: -3.74%
18,COc1ccccc1OP(C)(=O)Nc1ccccc1 (stereo unspecified),inactive: -7.06%
19,CP(=S)(Nn1cnnc1)Oc1ccccc1 (stereo unspecified),inactive: 0.7%

# Reference: PubChem BioAssay AID2235 (The Scripps Research Institute Molecular Screening Center, 2010)
